The text below walks through data of patent US8637508B2, “Heterocyclic derivatives and their use in the treatment of neurological disorders” (Novartis AG, priority 2011, dated 2014).

Chains of the proteins cited; added tags and fusions are not shown. Residues count along the entry.
UniProt Q9Y5Z0, 63-473: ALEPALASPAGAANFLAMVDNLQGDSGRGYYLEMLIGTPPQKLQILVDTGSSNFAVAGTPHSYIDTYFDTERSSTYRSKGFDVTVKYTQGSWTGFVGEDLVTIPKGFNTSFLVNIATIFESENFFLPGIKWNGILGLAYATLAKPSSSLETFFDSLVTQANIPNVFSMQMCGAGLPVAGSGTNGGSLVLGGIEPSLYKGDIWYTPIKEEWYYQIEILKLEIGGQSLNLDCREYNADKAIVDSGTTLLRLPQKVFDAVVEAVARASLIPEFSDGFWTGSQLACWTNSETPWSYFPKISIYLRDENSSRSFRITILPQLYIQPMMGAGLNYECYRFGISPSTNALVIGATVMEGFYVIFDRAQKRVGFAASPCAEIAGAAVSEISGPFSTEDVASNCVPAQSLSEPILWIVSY
UniProt P56817, 46-457: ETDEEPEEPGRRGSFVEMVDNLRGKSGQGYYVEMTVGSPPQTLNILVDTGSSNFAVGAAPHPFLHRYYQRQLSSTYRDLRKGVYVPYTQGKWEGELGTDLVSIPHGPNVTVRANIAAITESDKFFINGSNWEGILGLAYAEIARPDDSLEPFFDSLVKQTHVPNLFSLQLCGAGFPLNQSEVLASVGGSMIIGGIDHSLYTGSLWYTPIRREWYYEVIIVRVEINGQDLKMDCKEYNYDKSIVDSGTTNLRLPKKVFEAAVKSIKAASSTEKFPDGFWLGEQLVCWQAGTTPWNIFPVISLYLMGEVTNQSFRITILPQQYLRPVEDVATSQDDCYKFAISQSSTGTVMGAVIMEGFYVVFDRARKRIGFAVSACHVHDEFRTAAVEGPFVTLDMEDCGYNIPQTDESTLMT

The IC50 is the concentration that inhibits the measured activity by half.

The target of one test is human BACE-2 (Homo sapiens (Human), UniProt Q9Y5Z0). Description: Test 2: Inhibition of human BACE-2. The format is biochemical. The settings on record: mean IC50, recombinant BACE-2, acetate buffer pH 4.5, fluorescence-quenched peptide substrate. An excerpt:
Test 2: Inhibition of Human BACE-2

For the next test, the target named is human BACE-1 (Homo sapiens (Human), UniProt P56817). Description: Test 1: Inhibition of human BACE-1.

SMILES strings stand for the structures.

`C[C@@]1(c2cccc(NC(=O)c3ccc(C#N)cn3)n2)CO[C@@](C)(C(F)(F)F)C(N)=N1` [Example 10, 5-Cyano-pyridine-2-carboxylic acid [6-((3R,6R)-5-amino-3,6-dimethyl-6-trifluoromethyl-3,6-dihydro-2H-[1,4]oxazin-3-yl)-pyridin-2-yl]-amide]: the IC50 on human BACE-2 worked out at 100 nM.

Turning to `[2H]c1nc(C(=O)Nc2cc(C3(CF)COCC(N)=N3)ccn2)c(C([2H])([2H])[2H])c([2H])c1Cl` (centres unmarked) [Example 13, 5-{2-[(5-Chloro-4,6-dideutero-3-trideuteromethyl-pyridine-2-carbonyl)-amino]-pyridin-4-yl}-5-fluoromethyl-5,6-dihydro-2H-[1,4]oxazin-3-yl-ammonium acetate], the IC50 at human BACE-1 stood at 3700 nM.
